Source: PubChem BioAssay AID2690 (NMMLSC, 2010)
The entries are a selection whose mix differs from that of the whole data set. Active and inactive are the calls of the source.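 The calls were made as follows: active = superoxide response under a set limit, about three screen SD below normal (cut at about 65% in these data); inactive = the rest.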

Assay: yeast aging ROS inhibitors as calorie-restriction mimetics – HTS, primary screen (AID 2690);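 also: yeast aged for seven days with compound at 30 °C before DHE staining; 100% = average MFI of all compound-treated wells on the plate with controls excluded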
Conditions: S. cerevisiae aged cells, superoxide DHE fluorescence; at 10 µM; stronger effect = lower value

Q: With `CCCOP(=S)(Nc1nc(N)cc(=O)[nH]1)OCCC` as the compound, how does the superoxide response (% of plate mean) read?
A: inactive: 103%

Q: For `Cc1ccc(NCCc2c([N+](=O)[O-])cc([N+](=O)[O-])cc2[N+](=O)[O-])cc1`, which superoxide response (% of plate mean) is on record?
A: inactive: 105%

Q: Which superoxide response (% of plate mean) does the source give for `Nc1cccc2c([As](=O)(O)O)cccc12` here?
A: inactive: 102%

Q: For `CCOP(=O)(Nc1cccc2ccccc12)OCC`, which superoxide response (% of plate mean) is on record?
A: inactive: 76.2%

Q: Which superoxide response (% of plate mean) does the source give for `COc1cc(C2NCCC3(OCCO3)C2(C)C)cc(OC)c1OC` (stereo unspecified) here?
A: inactive: 96.6%

Q: With `CS(=O)(=O)c1cc([N+](=O)[O-])c2no[n+]([O-])c2c1` as the compound, how does the superoxide response (% of plate mean) read?
A: inactive: 123%

Q: Which superoxide response (% of plate mean) does the source give for `O=P(Nc1nccs1)(c1ccccc1)c1nc2ccccc2s1` (stereo unspecified) here?
A: inactive: 103%

Q: Which superoxide response (% of plate mean) does the source give for `O=P(Nc1nccs1)(Oc1ccccc1)Oc1ccccc1` here?
A: inactive: 106%

Q: For `CCOP1(=S)c2c(C)nn(CCC#N)c2N=C(c2ccccc2F)N1C` (stereo unspecified), which superoxide response (% of plate mean) is on record?
A: inactive: 89.5%

Q: With `O=C(O)COc1ccc([As](=O)(O)O)cc1[N+](=O)[O-]` as the compound, how does the superoxide response (% of plate mean) read?
A: inactive: 92.8%

Q: Which superoxide response (% of plate mean) does the source give for `Nc1ccccc1[As](=O)(O)c1ccccc1` here?
A: inactive: 102%

Q: Which superoxide response (% of plate mean) does the source give for `NC(=O)Nc1ccc([As](=O)(O)O)cc1` here?
A: inactive: 91.7%

Q: For `CN(C(=O)Cc1ccc(Cl)c(Cl)c1)[C@H]1CC[C@@]2(CCCO2)C[C@@H]1N1CCCC1`, which superoxide response (% of plate mean) is on record?
A: inactive: 95.8%

Q: Which superoxide response (% of plate mean) does the source give for `CN(C)C(=O)c1cc([N+](=O)[O-])cc2c1-c1c(cc([N+](=O)[O-])cc1[N+](=O)[O-])C2=O` here?
A: inactive: 103%

Q: With `O=[N+]([O-])c1ccc2c(c1)nnn2O` as the compound, how does the superoxide response (% of plate mean) read?
A: inactive: 118%

Q: For `CCOP1(=S)c2c(C)nn(CCC#N)c2N=C(c2ccc(F)cc2)N1C` (stereo unspecified), which superoxide response (% of plate mean) is on record?
A: inactive: 90.4%

Q: Which superoxide response (% of plate mean) does the source give for `CN(C(=O)Cc1ccccc1)[C@@H]1CC[C@]2(CCCO2)C[C@H]1N1CCCC1` here?
A: inactive: 95.7%

Q: With `N#CCCN(C(=O)COC(=O)C(O)(c1ccccc1)c1ccccc1)c1ccc(F)cc1` as the compound, how does the superoxide response (% of plate mean) read?
A: inactive: 98.7%

Q: For `COc1cc(C(=O)NCC2(N3CCOCC3)CCCCC2)ccc1OCC(C)C`, which superoxide response (% of plate mean) is on record?
A: inactive: 113%

Q: For `C[As](=O)(O)c1cccc(C(=O)O)c1`, which superoxide response (% of plate mean) is on record?
A: inactive: 89%

Q: With `O=[As](O)(c1ccc(O)cc1)c1ccccc1O` as the compound, how does the superoxide response (% of plate mean) read?
A: inactive: 94%

Q: With `Cc1ccc2nc3c(c(C)c2c1)CC(C(Cl)Cl)S3` (stereo unspecified) as the compound, how does the superoxide response (% of plate mean) read?
A: inactive: 98.6%

Q: With `Cc1ccc(OP(=O)(Nc2ccc([N+](=O)[O-])cn2)Oc2ccc(C)cc2)cc1` as the compound, how does the superoxide response (% of plate mean) read?
A: inactive: 84%

Q: Which superoxide response (% of plate mean) does the source give for `CC(C)c1ccc(OP(=O)(Nc2ccccn2)Oc2ccccc2F)cc1` (stereo unspecified) here?
A: inactive: 95.5%

Q: Which superoxide response (% of plate mean) does the source give for `ClCCSc1nnc(-c2cccnc2)o1` here?
A: inactive: 97.9%

Q: Which superoxide response (% of plate mean) does the source give for `O=[N+]([O-])c1cc([N+](=O)[O-])c(-c2ccn[nH]2)s1` here?
A: inactive: 91.3%

Q: For `CCN(CC)C(=S)SC(NC=O)C(Cl)(Cl)Cl` (stereo unspecified), which superoxide response (% of plate mean) is on record?
A: inactive: 140%

Q: With `CC(C)NC(=O)NP(=O)(Oc1ccccc1)Oc1ccccc1` as the compound, how does the superoxide response (% of plate mean) read?
A: inactive: 95.5%

Q: For `Cc1cc(=O)[nH]c(N[N+](=O)[O-])n1`, which superoxide response (% of plate mean) is on record?
A: inactive: 89.4%

Q: With `O=C(OC1CN2CCC1CC2)C12CC3CC(CC(C3)C1)C2` (stereo unspecified) as the compound, how does the superoxide response (% of plate mean) read?
A: inactive: 92.8%

Q: For `Cc1c2c(nc3ccccc13)SC(C(Cl)Cl)C2` (stereo unspecified), which superoxide response (% of plate mean) is on record?
A: inactive: 105%

Q: Which superoxide response (% of plate mean) does the source give for `COc1cc(I)ccc1[As](=O)(O)O` here?
A: inactive: 91.1%

Q: With `COc1ccc2nc(NP(=O)(c3ccccc3)c3ccccc3)sc2c1` as the compound, how does the superoxide response (% of plate mean) read?
A: inactive: 100%

Q: For `COc1ccc(N/C(=N/P(=O)(N2CCOCC2)N2CCOCC2)N2CCOCC2)cc1`, which superoxide response (% of plate mean) is on record?
A: inactive: 96.9%

Q: With `COP1(=S)c2c(C)nn(CCC#N)c2N=C(c2ccc(F)cc2)N1C` (stereo unspecified) as the compound, how does the superoxide response (% of plate mean) read?
A: inactive: 78.5%

Q: Which superoxide response (% of plate mean) does the source give for `O=C(Nc1ccncc1[N+](=O)[O-])c1ccc([N+](=O)[O-])cc1[N+](=O)[O-]` here?
A: inactive: 102%

Q: With `O=C(COc1ccccc1)OC1CN2CCC1CC2` (stereo unspecified) as the compound, how does the superoxide response (% of plate mean) read?
A: inactive: 104%

Q: Which superoxide response (% of plate mean) does the source give for `CCOC(=O)c1ccc(NC(=O)C(C)(CCl)SC)cc1` (stereo unspecified) here?
A: inactive: 109%

Q: For `O=C(OC1CN2CCC1CC2)c1cccc([N+](=O)[O-])c1` (stereo unspecified), which superoxide response (% of plate mean) is on record?
A: inactive: 101%

Q: With `CCC(C)N(CC(C)C)C(=S)SC(NC(C)=O)C(Cl)(Cl)Cl` (stereo unspecified) as the compound, how does the superoxide response (% of plate mean) read?
A: inactive: 91.3%

Q: Which superoxide response (% of plate mean) does the source give for `CCOC(=O)Nc1ccc([As](=O)(O)O)c(O)c1` here?
A: inactive: 102%

Q: For `Cc1cc(SC(NC(=O)c2ccccc2)C(Cl)(Cl)Cl)nc(C(C)C)n1` (stereo unspecified), which superoxide response (% of plate mean) is on record?
A: inactive: 98.1%

Q: With `CCOC(=O)Nc1cccc([As](=O)(O)O)c1` as the compound, how does the superoxide response (% of plate mean) read?
A: inactive: 96.8%

Q: For `O=[N+]([O-])c1ccc(Nc2ccc(Oc3ccc([N+](=O)[O-])cc3[N+](=O)[O-])cc2)c([N+](=O)[O-])c1`, which superoxide response (% of plate mean) is on record?
A: inactive: 101%

Q: With `Cc1cc(SC(NC=O)C(Cl)(Cl)Cl)ncn1` (stereo unspecified) as the compound, how does the superoxide response (% of plate mean) read?
A: inactive: 101%

Q: For `O=P(Nc1ccccn1)(c1cccc2ccccc12)c1cccc2ccccc12`, which superoxide response (% of plate mean) is on record?
A: inactive: 107%
